How the values were obtained:
[1] = target: T1, Mouse PPARγ LBD fusion protein (Mus musculus, UniProt P37238); experiment: Transcription activation potential, GAL4 luciferase reporter in C3A cells; assay type: cell-based
Protocol: (§1) Cells were seeded in 24 well plates the day prior to transfection at 5×10^4−2×10^5 cells/well, depending upon cell type. Cells were transfected using Lipofectamine 2000 reagent from Invitrogen. A total of 0.8 μg DNA/well was added to 50 μL of Optimem Reduced Serum media (serum free; Gibco). Lipofectamine 2000 was added (2.5 μL/well) to another tube containing 50 μL of Optimem media. Plasmid DNA was added at a ratio of 4:3 (reporter:activator); where appropriate, salmon sperm DNA was substituted for activator expressing plasmid. […] DNA constructs containing the mouse PPARα or PPARγ LBD fused to the GAL4 DNA binding domain were also used. The two solutions were incubated at room temperature for 5 min, and then combined. The combined solution was incubated at room temperature for approximately 30 min. Cells were washed once with PBS, and 100 μL of transfection mix added to each well. Plates were incubated at 37° C. in a 5% CO2 incubator for 4.5 hr, followed by aspiration of the transfection mix, with plates refed using EMEM complete media (supplemented with 10% FBS, 1× Glutamine). 24 hr post-transfection, plates were treated with the appropriate compounds in EMEM complete media, followed by washing once with PBS and addition of 100 μL 1× reporter lysis buffer/well (Promega) 24 hr after treatment. Plates went through one freeze/thaw cycle prior to analysis. Approximately 10 μL of lysate was added to 100 μL of firefly luciferase substrate, mixed by pipetting, and analyzed on a luminometer for 10 s using the integration function (relative luciferase units/RLU) or on a Microbeta Trilux (luciferase counts per second/LCPS). Each treatment was performed in triplicate, and in multiple, separate experiments.

By UniProt entry, the sequences of proteins in these tests, tags left out. Residues count along the entry.
UniProt P37238, 238-503: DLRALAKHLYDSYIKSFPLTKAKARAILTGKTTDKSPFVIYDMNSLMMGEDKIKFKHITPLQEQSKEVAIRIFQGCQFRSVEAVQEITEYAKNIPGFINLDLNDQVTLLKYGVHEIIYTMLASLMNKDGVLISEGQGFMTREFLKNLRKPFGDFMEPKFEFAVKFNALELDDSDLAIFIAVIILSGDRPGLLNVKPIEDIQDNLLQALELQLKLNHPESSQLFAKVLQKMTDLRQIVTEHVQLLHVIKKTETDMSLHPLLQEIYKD

[2] = target: T1, Mouse PPARγ LBD fusion protein; experiment: Transcription activation potential, GAL4 luciferase reporter in Hepa1.6 cells; assay type: cell-based; conditions: 3 μM
Protocol: as §1, with “24 hr post-transfection, plates were treated with the appropriate compounds in EMEM complete media, followed by washing once with PBS and addition of 100 μL 1× reporter lysis buffer/well (Promega) 24 hr after treatment. Plates went through one freeze/thaw cycle prior to analysis.” left out, “Each treatment was performed in triplicate, and in multiple, separate experiments.” left out

CN(CCOc1ccc(CC2SC(=O)NC2=O)cc1)c1ccccn1 (stereo not shown) [Rosiglitazone, rosiglitazone, reference compound]
transcription activation potential (luciferase) ± standard deviation ([1]; 3 μM, Table 21b): 17264 ± 8260 RLU
transcription activation potential (luciferase) ± standard deviation ([1]; Table 20b line 1 μM, rosiglitazone at one-fifth the listed concentration (0.2 μM)): 196.8 ± 138.9 LCPS
transcription activation potential (luciferase) ± standard deviation ([1]; Table 20b line 3 μM, rosiglitazone at one-fifth the listed concentration): 60.1 ± 29.14 LCPS
transcription activation potential (luciferase) ± standard deviation ([1]; Table 20b line 10 μM, rosiglitazone at one-fifth the listed concentration): 432.7 ± 137.4 LCPS
transcription activation potential (luciferase) ± standard deviation ([1]; Table 20b line 30 μM, rosiglitazone at one-fifth the listed concentration): 378 ± 274.5 LCPS
transcription activation potential (luciferase) ± standard deviation ([1]; Table 20b line 100 μM, rosiglitazone at one-fifth the listed concentration): 308.6 ± 110.1 LCPS
transcription activation potential (luciferase) ± standard deviation [2]: 1817 ± 331 RLU

From US7932290B2, “Method for the treatment of metabolic disorders” (Wellstat Biologics Corporation, priority 2003, dated 2011)
